According to ChEMBL document CHEMBL1133627, “4-Anilino-6,7-dialkoxyquinoline-3-carbonitrile inhibitors of epidermal growth factor receptor kinase and their bioisosteric relationship to the 4-anilino-6,7-dialkoxyquinazoline inhibitors” (J Med Chem, 2000):

How the values were obtained:
Type in all cases: functional, cell-based
A-431 = assay: Concentration needed to inhibit 50% growth of the human A431 (epidermoid carcinoma) cell lines
SK-BR-3 = assay: Concentration needed to inhibit 50% growth of human SKBr3 (breast carcinoma) cell lines
SW-620 = assay: Concentration needed to inhibit 50% growth of human SW620 (colon carcinoma) cell lines

COc1cc2ncc(C#N)c(Nc3cc(Cl)ccc3O)c2cc1OC
IC50 (A-431): 0.94 µM | IC50 (SK-BR-3): 1.19 µM | IC50 (SW-620): 3.43 µM

COc1ccc(Nc2c(C#N)cnc3cc(OC)c(OC)cc23)cc1OC
IC50 (A-431): 5.28 µM | IC50 (SK-BR-3): 13.2 µM | IC50 (SW-620): 8.76 µM

COc1cc2ncc(C#N)c(Nc3cccc([N+](=O)[O-])c3)c2cc1OC
IC50 (A-431): 2.14 µM | IC50 (SK-BR-3): 2 µM | IC50 (SW-620): 17.3 µM

COc1cc2ncc(C#N)c(Nc3cccc(C(F)(F)F)c3)c2cc1OC
IC50 (A-431): 2.53 µM | IC50 (SK-BR-3): 13.4 µM | IC50 (SW-620): 35.6 µM
